Source: patent publication US20240384268A1, “Oligonucleotides” (Hudson Institute of Medical Research, priority 2021, published 2024)

The chains behind the UniProt entries cited, without tags or fusion partners. Residues count along the entry.
UniProt P58681, 27-1050 Y264H: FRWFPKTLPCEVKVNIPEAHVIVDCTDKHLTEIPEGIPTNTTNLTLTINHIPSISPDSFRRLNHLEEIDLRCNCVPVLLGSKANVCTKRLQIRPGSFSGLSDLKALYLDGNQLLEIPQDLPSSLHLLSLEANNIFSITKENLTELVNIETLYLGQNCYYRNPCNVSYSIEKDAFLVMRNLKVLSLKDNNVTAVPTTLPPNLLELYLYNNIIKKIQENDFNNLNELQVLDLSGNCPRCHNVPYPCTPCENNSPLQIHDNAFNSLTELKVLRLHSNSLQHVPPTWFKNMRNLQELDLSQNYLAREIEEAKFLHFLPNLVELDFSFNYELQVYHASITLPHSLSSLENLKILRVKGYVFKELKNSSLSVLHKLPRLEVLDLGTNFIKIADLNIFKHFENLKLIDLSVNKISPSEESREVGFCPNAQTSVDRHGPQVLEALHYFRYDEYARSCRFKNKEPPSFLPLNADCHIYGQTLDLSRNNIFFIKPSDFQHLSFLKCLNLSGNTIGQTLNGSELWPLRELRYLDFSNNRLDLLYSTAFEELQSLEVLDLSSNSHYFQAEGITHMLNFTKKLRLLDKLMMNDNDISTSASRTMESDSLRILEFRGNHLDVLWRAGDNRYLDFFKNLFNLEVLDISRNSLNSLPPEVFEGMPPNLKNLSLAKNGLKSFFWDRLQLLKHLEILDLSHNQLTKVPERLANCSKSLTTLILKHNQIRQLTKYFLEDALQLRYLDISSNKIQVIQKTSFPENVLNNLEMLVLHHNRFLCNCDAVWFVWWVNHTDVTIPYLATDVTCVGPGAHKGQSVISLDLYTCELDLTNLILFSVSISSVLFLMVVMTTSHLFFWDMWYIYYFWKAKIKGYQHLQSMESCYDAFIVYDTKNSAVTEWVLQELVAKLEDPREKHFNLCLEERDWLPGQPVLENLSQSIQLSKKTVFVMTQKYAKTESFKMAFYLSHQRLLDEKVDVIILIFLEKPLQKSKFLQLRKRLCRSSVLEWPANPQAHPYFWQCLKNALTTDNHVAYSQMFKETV
UniProt Q8N884, whole entry: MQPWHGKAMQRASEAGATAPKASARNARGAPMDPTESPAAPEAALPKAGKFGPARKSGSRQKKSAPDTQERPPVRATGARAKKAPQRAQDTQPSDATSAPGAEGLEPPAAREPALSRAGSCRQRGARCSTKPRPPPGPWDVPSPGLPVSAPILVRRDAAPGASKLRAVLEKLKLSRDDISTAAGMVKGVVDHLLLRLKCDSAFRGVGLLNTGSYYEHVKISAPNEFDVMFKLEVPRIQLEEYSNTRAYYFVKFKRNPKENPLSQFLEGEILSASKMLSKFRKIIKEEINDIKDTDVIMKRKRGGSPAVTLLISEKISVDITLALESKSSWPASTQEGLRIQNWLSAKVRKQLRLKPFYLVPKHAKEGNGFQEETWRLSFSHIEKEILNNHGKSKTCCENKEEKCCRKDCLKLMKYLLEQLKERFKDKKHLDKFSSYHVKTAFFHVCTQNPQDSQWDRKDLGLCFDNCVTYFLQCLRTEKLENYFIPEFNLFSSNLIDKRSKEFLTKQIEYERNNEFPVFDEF

How the values were obtained:
TLR7 = TLR7 (Mus musculus, UniProt P58681, Y264H); assay: Constitutive TLR7 activation in Tlr7 Y264H primary BMDMs, RT-qPCR (TNFα, Oas3); type: cell-based; settings: 200 nM ASO overnight
Description: FIG. 15: Primary BMDMs from wildtype (WT) and Tlr7 […] mutant mice were pre-treated overnight with 200 nM of indicated ASOs prior to mRNA purification and RT-qPCR analyses. […] In such examples, inhibition of TLR7 activity can be identified by observation of an overall decreased TLR7 response of the cell population, or a lower proportion of cells having TLR7-positive activity as compared to positive control condition in which cells are treated with TLR7 agonist in the absence of the oligonucleotide (or in the presence of an appropriate control inhibitory agent). In one example, 293[…]7 (referred to as HEK-TLR7) cells are transfected with pNF-κB-Luc4 reporter, incubated with an oligonucleotide, and then stimulated with R848. TLR7 activity can be determined by a luciferase assay, which measures activated NF-κB by luminescence. TLR7 activity can also be analysed by measuring cytokine levels, for example by ELISA. […] Alternatively, such cells may express a constitutively active form of TLR7 (e.g., Tlr7^[…]). TLR7 activity may then be assessed by the gene or protein expression of TLR7-responsive genes, such as Tnfα and Oas3. […] NO: 324); […] NO: 327); hIFI44: […] NO: 328); hIFI44: […] NO: 329); Human IFIT2: […] NO: 330); […] NO: 331); Human cGAS: […] NO: 333); Mouse Rsad2: […] NO: 335); […] Mouse […] NO: 339); Mouse […] NO: 341). Mouse OAS3: […] NO: 342); mOAS3-REV […] NO: 343);

cGAS = cGAS (Homo sapiens, UniProt Q8N884); assay: ISD70-driven IP-10 (and IFN-β) production in THP-1 cells, ELISA; type: cell-based; set-up: endogenous in cells; host or cells: THP-1 (undifferentiated); settings: THP-1 UNC93B1−/− and UNC93B1 WT; 100 or 250 nM ASO 6 h; ISD70 overnight
Description: The ability of an oligonucleotide to inhibit cGAS activity can, for example, be analysed by incubating cells which express cGAS with an oligonucleotide, then stimulating said cells with a cGAS agonist (e.g., 70-bp interferon stimulating DNA or ISD70; 45-bp interferon stimulating DNA or ISD45), and analysing the overall cGAS response in the cell population, or analysing the proportion of cells having cGAS-positive activity after a defined period of time.
In such examples, inhibition of cGAS activity can be identified by observation of an overall decreased cGAS response of the cell population, or a lower proportion of cells having cGAS-positive activity as compared to positive control condition in which cells are treated with cGAS agonist in the absence of the oligonucleotide (or in the presence of an appropriate control inhibitory agent). In one example, THP-1 or HT-29 cells are transfected with ISD70 and incubated with an oligonucleotide. cGAS activity can then be determined by cytokine (e.g., IP-10 and/or IFNβ) expression (e.g., gene and/or protein expression) and/or secretion levels, such as by ELISA. A similar assay can be performed with LL171 cells transfected with ISD45. […] By way of example, cGAS enzymatic activity may be assessed in vitro using recombinant cGAS and then measuring activity thereof by way of a cGAMP ELISA. […]

Substance	constitutive TLR7 activation (TNFα and Oas3 mRNA; in words) (TLR7)	effect on ISD70 sensing in UNC93B1-deficient and matched wild-type cells (in words) (cGAS)
mC*mG*mU*T*T*C*C*C*C*C*C*C*C*C*C*C*C*C*C*C (CGUTTCCCCCCCCCCCCCCC; antisense; sugars from the 5' end m3 d17, all phosphorothioate, methylation of C not given here) [[C2]Mut1-v3-dC]	but not	
mG*mC*mA*mG*mU*C*T*C*C*A*T*G*T*C*C*mC*mA*mG*mG*mC (GCAGUCTCCATGTCCCAGGC; antisense; sugars from the 5' end m5 d10 m5, all phosphorothioate, methylation of C not given here) [[CDKN2B-AS1]2234]		dose-dependent inhibitory effect
mG*mG*mU*A*T*C*C*C*C*C*C*C*C*C*C*C*C*C*C*C (GGUATCCCCCCCCCCCCCCC; antisense; sugars from the 5' end m3 d17, all phosphorothioate, methylation of C not given here) [[C2]Mut1-dC]	significantly reduced constitutive TLR7 activation	
mC*mU*mU*mU*mA*G*T*C*G*T*A*G*T*T*G*mC*mU*mU*mC*mC (CUUUAGTCGTAGTTGCUUCC; sugars from the 5' end m5 d10 m5, all phosphorothioate, methylation of C not given here) [ASO11]		not seen

d = 2'-deoxy (DNA); m = 2'-O-methyl
